Measured values reported in patent US20260042834A1, “ANTI-CORTICOTROPIN-RELEASING HORMONE ANTIBODIES AND POLYCYSTIC OVARY SYNDROME” (HBM ALPHA THERAPEUTICS, INC., priority 2022, published 2026).
Like-named read-outs stand apart in the source and are kept apart here.

Protein sequences, listed by entry. Tags and fused reporters are not part of them. Residues count along the entry.
UniProt P06850, 171-194: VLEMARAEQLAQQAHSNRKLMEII
UniProt P06850, 168-187: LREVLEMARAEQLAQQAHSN

Experiments:
[1] = target: T1, N-terminal region plus central region, central region only, central region plus C-terminal region of CRH (Homo sapiens, UniProt P06850); assay: ELISA determining the binding region of CRH; conditions: dash = no binding
T1 construct: N-terminal region plus the central region (CT biotin), the central region only (NT biotin or CT biotin)
Protocol: Streptavidin (Thermo, Cat: 21125) was diluted in PBS to a concentration of 2 μg/ml. 100 μl of diluted streptavidin was added per well to ELISA microplates, and the plates were incubated overnight at 4° C. Plates were blocked with ELISA blocking solution (containing 2% w/v BSA, 0.05% (v/v) Tween-20, pH 7.4 PBS buffer) at 37° C. for 1 hour, and then incubated with 1 μg/mL N-terminal region plus the central region (CT biotin), the central region only (NT biotin or CT biotin), or the central region plus C-terminal region (NT biotin) of CRH for 1 hour at 37° C. Plates were then washed and incubated with diluted anti-CRH antibody (Ab) at 15 μg/ml (100 nM, 10 diluted, 8 points) for 1 hour at 37° C. Subsequently, plates were washed and incubated with HRP-conjugated goat anti-human IgG (H+L) antibody (Jackson, Cat: 109-035-088) at 37° C. for 1 hour. 100 μL of 3,3′,5,5′-tetramethylbenzidine (TMB) substrate (Biopanda, Cat: TMB-S-003) was added, and the plates were incubated at room temperature for 15 minutes. 100 μL of ELISA stopping solution (Solarbio, Cat #: C1058) was added to terminate the reaction, and the optical density at 450 nm (OD450 nm) was determined by an ELISA plate reader (Molecular Devices, Spectra max 384 plus).

[2] = system: restraint-induced ACTH and corticosterone; assay: Wildtype mice restraint-stress model (ACTH and corticosterone); type: in vivo, mouse
Protocol: 8-10 week old wildtype female C57BL/6 mice were obtained from Charles River Laboratories. Mrap1 KO mice were obtained from Queen Mary University of London, UK. SSR125543A, a small molecule CRHR1 antagonist, was obtained from Axon Medchem (Cat #Axon 1799). Mouse Corticosterone (55-Corms-E01) and adrenocorticotropic hormone (ACTH) ELISA kits (21-ACTHU-E01) were obtained from ALPCO, USA. All procedures were carried out in accordance with the Guide for the Care and Use of Laboratory Animals of the National Institutes of Health. Protocols were approved by Charles River Laboratories Institutional Animal Care and Use Committee (IACUC).
To determine the effect of nonpainful physical restraint upon stress responses, mice were restrained in 50 ml polypropylene ventilated tubes in which the tip was cut off with a razor blade to allow the mouse to breathe easily for 15-20 minutes. A mouse was directed to the open tube and crawled in. A piece of paper towel was put behind the mouse so that it could not back out, and the cap was screwed on. The mouse was placed back in its cage, ventral size down on the bedding. This stressor is not considered painful, as mice are confined to a limited space (in a ventilated restraint tube) but not in an unnatural physical position. The investigator was present in the room during the entire procedure. At the end of the procedure, the mouse was removed by the tail.
On day 1, each mouse was injected intraperitoneally with 20 mg/kg of anti-CRH mAbs, hIgG1 or PBS (5 mice per group). On day 2 or 3, and 14 each mouse was subjected to physical restraint-stress described above for 15 or 20 min. Immediately after restraint-stress, 200 μl of blood was collected in EDTA tubes from the submandibular vein of each mouse. Plasma was separated using a refrigerated centrifuge (4° C. at 500×g for 10 min) and snap-frozen in dry ice for subsequent ACTH and corticosterone ELISA measurement.
On day 1, one half of mice were injected IP with 20 mg/kg of anti-CRH Ab or hIgG1 (5 mice per group). On day 3, the other half of mice were injected IP with 30 mg/kg of SSR125543A or solvent (5 mice each group). Two hours later, four groups of mice were subjected to restraint-stress as described above for 20 min. Immediately after restraint-stress, 200 μl of blood was collected in EDTA tubes from the submandibular vein of each mouse in all four groups. Plasma was separated as described above and snap-frozen in dry ice for subsequent ACTH and corticosterone ELISA measurement. On day 4, SSR125543A or solvent-treated mice were subjected to a second round of restraint stress for 20 min and plasma was collected. Two weeks later, anti-CRH mAb- or hIgG1-treated mice were subjected to physical stress for 20 min followed by plasma collection.

[3] = In vivo PK study in female C57BL/6 mice; design: species or system mouse; conditions: single IV dose 5 mg/kg
Protocol: For each antibody tested, 6 female C57BL/6 mice with a weight of 18-22 grams were selected, and antibody was administered intravenously at a single dose of 5 mg/kg. Whole blood was collected from 3 mice before and 15 minutes, 24 hours (1 day), 4, and 10 days after administration. Whole blood from the remaining 3 mice was collected before and 5 hours, 2, 7, and 14 days after administration. Whole blood was allowed to stand for 30 minutes to coagulate and then centrifuged. Separated serum was then frozen at −80° C. until analysis.
ELISA was used to quantitatively determine the drug concentration in mouse serum. Tested antibodies (with human Fc) in mice serum were captured by goat anti-human Fc polyclonal antibody (Rockland, #609-101-017) pre-coated on a 96-well plate. HRP-labeled goat anti-human (H+L) secondary antibody (Abcam, #ab97175) was then added into the wells. Plates were then sealed and incubated at 37° C. for 30 minutes, followed by washing and adding TMB substrate and ELISA stopping solution. 96-well plates were read at 450/630 nm wavelength using SpectraMax M2. Data was processed by Soft Max Pro.
Pharmacokinetic (PK) parameters were analyzed by Phoenix WinNonlin version 8.2 with non-compartmental model (NCA).

[4] = restraint, 20 mg/kg IP, Day 1 post-mAb dosing
[5] = restraint, fourteen days after a single dose 20 mg/kg IP

Row | EC50 ([1]; central plus C-terminal region CRH peptide, NT-biotin (SEQ ID NO: 483), read-out: ELISA EC50 C-Ter-CRH (NT-Bion)) [nM] | EC50 ([1]; central region CRH peptide, CT-biotin (SEQ ID NO: 485), read-out: ELISA EC50 Central-CRH (CT-Bion)) [nM] | EC50 ([1]; central region CRH peptide, NT-biotin (SEQ ID NO: 484), read-out: ELISA EC50 Central-CRH (NT-Bion)) [nM] | Molecule | restraint-induced ACTH concentrations ([2]; 20 mg/kg IP) | restraint-induced corticosterone concentrations ([2]; 20 mg/kg IP) | plasma ACTH concentrations [2, 4] | plasma corticosterone concentrations [2, 4] | ACTH concentrations [2, 5] | corticosterone concentrations [2, 5] | serum half-life (T1/2) ([3]; C57BL/6 wildtype mice) [days] | AUClast ([3]; female C57BL/6 wildtype mice) [µg·h/mL] | C0 ([3]; female C57BL/6 wildtype mice) [µg/mL] | CL_pred ([3]; female C57BL/6 wildtype mice) [mL/day/kg] | T1/2 ([3]; female C57BL/6 wildtype mice) [days] | Vss—pred ([3]; female C57BL/6 wildtype mice) [L/kg]
1 | > 100 | > 100 | > 100 | PR005660: ΔPTM variant of Series 1 mAb PR004290; HCDR2 54EG55, LCDR1 36QS37 (antibody) heavy: EVQLVESGGVLVQPGGSLRLSCAASGFTFSSYWMTWVRQAPGKGLEWVANIKQEGSEKYYVDSVKGRFTISRDNAKNSLFLQMNSLRAEDTAVYYCARTLIFDYWGQGTLVTVSSASTKGPSVFPLAPSSKSTSGGTAALGCLVKDYFPEPVTVSWNSGALTSGVHTFPAVLQSSGLYSLSSVVTVPSSSLGTQTYICNVNHKPSNTKVDKKV[human IgG1 Fc not listed] light: DIVMTQSPLSLPVTPGEPASISCRSSQSLLHSTGYQSLEWYLQKPGQSPQLLIYLGSNRASGVPDRFSGSGSGTDFTLKISRVEAEDVGIYYCMQTLQTPITFGQGTRLEIKRTVAAPSVFIFPPSDEQLKSGTASVVCLLNNFYPREAKVQWKVDNALQSGNSQESVTEQDSKDSTYSLSSTLTLSKADYEKHKVYACEVTHQGLSSPVTKSFNRGEC | – | – | – | – | – | – | – | – | – | – | – | –
2 | – | – | – | PR004290: Series 1 anti-CRH mAb from hybridoma clone 28b3 (CRH knockout H2L2 mice), recombinant with human IgG1 wildtype Fc (antibody) heavy: EVQLVESGGVLVQPGGSLRLSCAASGFTFSSYWMTWVRQAPGKGLEWVANIKQDGSEKYYVDSVKGRFTISRDNAKNSLFLQMNSLRAEDTAVYYCARTLIFDYWGQGTLVTVSSASTKGPSVFPLAPSSKSTSGGTAALGCLVKDYFPEPVTVSWNSGALTSGVHTFPAVLQSSGLYSLSSVVTVPSSSLGTQTYICNVNHKPSNTKVDKKV[human IgG1 Fc not listed] light: DIVMTQSPLSLPVTPGEPASISCRSSQSLLHSTGYNSLEWYLQKPGQSPQLLIYLGSNRASGVPDRFSGSGSGTDFTLKISRVEAEDVGIYYCMQTLQTPITFGQGTRLEIKRTVAAPSVFIFPPSDEQLKSGTASVVCLLNNFYPREAKVQWKVDNALQSGNSQESVTEQDSKDSTYSLSSTLTLSKADYEKHKVYACEVTHQGLSSPVTKSFNRGEC | markedly inhibited | markedly inhibited | down to basal unstressed levels | down to basal unstressed levels | remained partially inhibited | remained partially inhibited | 14 | 18785 ± 1414 | 141 | 4.85 | 14.1 | 0.0944
